Results on one molecule are retold here after patent publication US8318741B2, “Therapeutic compositions and methods” (The Texas A & M University System, priority 2005, dated 2012).

The test system of test [1] is choroidal neovascularization in rat eyes. The experiment in a line: CNV formation in rat eyes after laser induction (fluorescein angiography).
The subject of a further test is rat eyes. The test can be described thus: Retinal function recovery after ischemic insult in rat eyes (ERG b-wave). The conditions noted are these: N-Nitropyrazoles and C-Nitropyrazoles, 10 mg/kg ip.
Test [2] concerns ocular hypertensive rabbit eyes. The experiment in a line: Choroidal blood flow in ocular hypertensive rabbit eyes (colored microspheres). Type of test: in vivo, New Zealand white rabbits.

Each structure is given as a SMILES string.

For the molecule `O=[N+]([O-])n1cc(Br)cn1`, the “Inhibition of CNV formation” value in test [1] (20 mg/kg i.p. once a day for 4 weeks, eight laser lesions) is listed as “marked inhibition of the CNV formation”; in test [1] (at various dose levels, AMD rat model), “potent inhibition of CNV formation”. In the test on rat eyes (b-wave recovery after 30 min ischemia, Mean ± SD, N = 6), the “Retinal Function Recovery After Ischemic Insult, Treated” value amounted to 58.6 ± 21.4 %. In addition, the “Retinal Function Recovery, Net increase (%)” value in the test on rat eyes (treated versus control) turned out to be 67.4%. Moreover, the “Choroidal Blood Flow, 30 min” value in test [2] (N-nitro-azoles and C-nitropyrazoles, 50 μl, 1% topically, 30 min, vehicle controls at 100%, mean ± SD, N = 6) worked out at 105.8 ± 30.1 %. Also, the “Choroidal Blood Flow, 60 min” value in test [2] (N-nitro-azoles and C-nitropyrazoles, 50 μl, 1% topically, 60 min, vehicle controls at 100%, mean ± SD, N = 6) is 83.8 ± 11.3 %. In addition, the “Choroidal Blood Flow, 120 min” value in test [2] (N-nitro-azoles and C-nitropyrazoles, 50 μl, 1% topically, 120 min, vehicle controls at 100%, mean ± SD, N = 6) worked out at 153.3 ± 51.5 %. Moreover, the “Choroidal Blood Flow, 180 min” value in test [2] (N-nitro-azoles and C-nitropyrazoles, 50 μl, 1% topically, 180 min, vehicle controls at 100%, mean ± SD, N = 6) worked out at 112.5 ± 34.6 %. Further, the “Onset / latent period of the increase of choroidal blood flow” value in test [2] (after drug administration) is 30 min.
